The list is not random: actives were taken first. Their share in the collection is about 1.5%.
Env fusion inh: inhibitors of HIV-1 Env-driven cell-cell fusion, primary screen, HeLa-JRFL effector, CEM21 target cells, luciferase. inhibition, % at 12.3 µM. 360,000 compounds, 1.1% hits;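 active = mean replicate inhibition score of at least 50 and every replicate individually at or above 50; inconclusive = only one of the two criteria met; inactive = mean below 50 and not all replicates reaching 50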
FN deposition inh: inhibitors of fibronectin matrix deposition, primary screen, AH1F cells, Alexa488-fibronectin fluorescence, plate reader | AID 743247, 2014 | inhibition, % at 12.6 µM | 350,000 compounds, 0.086% hits | AH1F fibroblasts, overnight;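 active = mean inhibition across replicates of 30% or more, regardless of how many single replicates reach that level; inconclusive = mean under 30% yet at least half of replicates reach 30%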
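Material: AH1F fibroblast monolayer depositing Alexa488-labelled fibronectin into matrix / Amount: 10000 AH1F cells per well / Signal: fluorescence 485/525 nm / Medium: DMEM, 2% serum / Compound: single dose, pinned / Incubation: 1 h cell adhesion before compound, then overnight fibronectin incubation / Reagent: Alexa488-FN, 24 nM final / Read-out: inhibition of fibronectin deposition signal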
Cneo AK release: Cryptococcus neoformans cell lysis inducers, primary screen, AK release luminescence, single concentration; C. neoformans lysis, adenylate kinase release luminescence, 4 h; normalised: neutral wells 0, clomiphene wells 100; lysis activity, % at 15 µM; 360,000 compounds, 0.2% hits; AID 651654, 2012;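 active = mean lysis activity across replicates of at least 80%, whatever share of replicates individually reach that level; inactive = mean lysis activity below 80%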
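Test system: log-phase Cryptococcus neoformans yeast cells; Quantity: yeast cell density of 5 × 10^6 cells/mL; Buffer or medium: YPD; Doses: single compound concentration per well; Timing: 4 h at 37 °C static, read 1 h later; Measured by: AK luminescence; Read-out basis: lysis from increased AK signal; Control set: Clomiphene as positive control.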
PGC1a acetyl inh: inhibitors of PGC1a acetylation signal, primary screen, cell-based, U2OS, AlphaScreen, inhibitor mode; AlphaScreen anti-acetyl-lysine; with virally co-expressed GCN5 acetyltransferase; inhibition, % at 15.6 µM; 350,000 compounds, 0.17% hits; AID 651687, 2012;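 active = every replicate shows inhibition of at least 40%; inconclusive = mean inhibition at least 40% but some replicate below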
miR-122 sensor: miR-122 Renilla sensor signal increase in Huh7, primary screen, miR-122 inhibitor project, cell-based, single point, plate reader; 340,000 compounds, 0.3% hits; Huh7 miR-122 Renilla luciferase sensor, 48 h; neutral wells = 0, positive control = 100; activation (reporter increase), % at 12.5 µM; AID 602342, 2012;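 active = mean replicate activation score at least 90 and every replicate individually at or above 90; inconclusive = only one of the two criteria met; inactive = neither criterion met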;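 also: higher luciferase means less miR-122 activity so hits act as miR-122 inhibitors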
UUG fidelity: alters start codon recognition fidelity in yeast | S. cerevisiae UUG-firefly luciferase reporter, luminescence/redox ratio | activity score, % at 18.7 µM | hit rate 0.13% among 350,000 | AID 602363;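 active means replicate mean at a twofold rise or more, about +100% in these data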;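 further: firefly luciferase made from a UUG start codon reports start codon fidelity; reporter light over untreated wells divided by growth signal over untreated wells; some hits fall short of that in this replicate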
Each line names hits and unclear results; the compound was inactive in the other large screens; [ ] = remark or other dose.

COc1ccc(S(=O)(=O)Nc2ccc3c(c2)C(=O)N([C@@H](C)CO)C[C@H](C)[C@@H](CN(C)Cc2ccc(Oc4ccccc4)cc2)O3)cc1	Env fusion inh 63[16.7 µM] (no result: FN deposition inh)
COc1ccc(S(=O)(=O)Nc2ccc3c(c2)C(=O)N([C@@H](C)CO)C[C@H](C)[C@@H](CN(C)C)OCCCC[C@H](C)O3)cc1	Cneo AK release 91 (no result: UUG fidelity)
COc1ccc(S(=O)(=O)Nc2ccc3c(c2)C(=O)N([C@H](C)CO)C[C@H](C)[C@H](CN(C)C)OCCCC[C@@H](C)O3)cc1	none
COc1ccc(S(=O)(=O)Nc2ccc3c(c2)C(=O)N([C@@H](C)CO)C[C@@H](C)[C@@H](CN(C)Cc2ccc(Oc4ccccc4)cc2)O3)cc1	none (no result: FN deposition inh)
O=C(COC(=O)Cc1cccc2ccccc12)Nc1ccccc1-c1ccccc1	none (no result: Cneo AK release, PGC1a acetyl inh, miR-122 sensor, UUG fidelity)
Cc1ccccc1Cn1c(C)nc2ccc([N+](=O)[O-])cc2c1=O	none (no result: PGC1a acetyl inh, miR-122 sensor)
CN(C)C(=O)c1cccc(-c2cccc(-c3nc(C(=O)NC4CCCCC4)cc4c3[C@@H](CCO)N([S@](=O)C(C)(C)C)C4)c2)c1	none (no result: miR-122 sensor, UUG fidelity)
Cc1cc(NC(=O)CCNS(=O)(=O)c2cc(Br)cnc2N)ccc1Br	Env fusion inh 59
Nc1ncc(Br)cc1S(=O)(=O)NCCC(=O)Nc1cccc(Cl)c1	Env fusion inh 59 (no result: FN deposition inh, Cneo AK release, PGC1a acetyl inh, UUG fidelity)
Cc1ccc(NC(=O)CCNS(=O)(=O)c2cc(Br)cnc2N)cc1Cl	none
CCCc1[nH]nc2c1C(c1ccc(OC)cc1OC)C(C#N)=C(N)O2 (stereo not given)	none
O=C(CNCc1ccccn1)Nc1cc(S(=O)(=O)N2CCCCC2)ccc1Cl	none (no result: Cneo AK release, PGC1a acetyl inh, miR-122 sensor, UUG fidelity)
COc1ccccc1NS(=O)(=O)c1cc(NC(=O)CC(C)(C)C)ccc1N1CCOCC1	none
COc1ccccc1NS(=O)(=O)c1cc(NC(=O)CCC2CCCC2)ccc1N1CCOCC1	miR-122 sensor 119
COc1ccc(NS(=O)(=O)c2cc(NC(=O)CCc3ccc(OC)c(OC)c3)ccc2N2CCOCC2)cc1	miR-122 sensor 118
COc1ccccc1NS(=O)(=O)c1cc(NC(=O)Nc2ccc(Cl)cc2Cl)ccc1N1CCCCC1	miR-122 sensor inconclusive
COc1ccccc1NS(=O)(=O)c1cc(NC(=O)c2cccs2)ccc1N1CCOCC1	miR-122 sensor 112 (no result: Cneo AK release, UUG fidelity)
COc1ccc(NS(=O)(=O)c2cc(NC(=O)C3CC3)ccc2N2CCOCC2)cc1	none
COc1cc(/C=C/C(=O)Nc2ccc(N3CCCCC3)c(S(=O)(=O)Nc3ccccc3Cl)c2)cc(OC)c1OC	miR-122 sensor 289 (no result: Cneo AK release, PGC1a acetyl inh, UUG fidelity)
CCC1CCCCN1C(=S)NC(=O)c1cc(Br)ccc1Cl (stereo not given)	none
CCN(CC)c1ncnnc1-c1ccccc1	none
O=C(c1ccc2nc(Cc3cccc(Cl)c3)oc2c1)N1CCC[C@H]1CO	none
COc1ccccc1NS(=O)(=O)c1cc(NC(=O)c2ccco2)ccc1N1CCOCC1	none (no result: FN deposition inh, Cneo AK release, PGC1a acetyl inh, miR-122 sensor, UUG fidelity)
CCC(C(=O)Nc1ccc(N2CCOCC2)c(S(=O)(=O)Nc2ccccc2OC)c1)c1ccccc1 (stereo not given)	miR-122 sensor 121 (no result: Cneo AK release, UUG fidelity)
O=C(Nc1cccc(-c2ccc3nncn3n2)c1)c1ccco1	none
COC(=O)C1C2CCC(C2)C1C(=O)OCC(=O)c1ccccc1 (stereo not given)	none (no result: Cneo AK release, PGC1a acetyl inh, miR-122 sensor, UUG fidelity)
CCCOC(=O)C1C2C=CC(C3CC23)C1C(=O)OCC(=O)c1ccccc1 (stereo not given)	Env fusion inh 62 (no result: FN deposition inh, PGC1a acetyl inh)
Nc1ccc(-c2nc3ccc(C(=O)O)cc3s2)cc1	Env fusion inh 69 (no result: Cneo AK release, PGC1a acetyl inh, miR-122 sensor, UUG fidelity)
C=CCN(C(C(=O)OC)C(C)C)S(=O)(=O)CCNCc1ccccc1 (stereo not given)	Env fusion inh inconclusive
C=CCN([C@H](C(=O)OC)C(C)C)S(=O)(=O)CCNCc1ccccc1	Env fusion inh 62
CC(=O)c1ccc(C(=O)NC2CCCN(Cc3ccccc3F)C2)cc1 (stereo not given)	none (no result: PGC1a acetyl inh)
CC(=O)Nc1nc2ccc(S(=O)(=O)N3CCCC3)cc2s1	none (no result: PGC1a acetyl inh)
CCCC(=O)Nc1nc2ccc(S(=O)(=O)N3CCCCC3)cc2s1	miR-122 sensor 118
CC(NC(=O)Cc1cccs1)C(c1cccs1)N1CCN(c2ccccc2F)CC1 (stereo not given)	Env fusion inh 62
CC(NC(=O)Cc1cccs1)C(c1cccs1)N1CCN(c2ccccc2)CC1 (stereo not given)	none (no result: Env fusion inh, FN deposition inh)
C[C@@H]1CN([C@@H](C)CO)C(=O)Cc2cc(NC(=O)Cc3cn(C)c4ccccc34)ccc2O[C@@H]1CN(C)S(=O)(=O)c1cccs1	none
COc1ccc(S(=O)(=O)N(C)C[C@H]2Oc3ccc(NC(=O)Cc4cn(C)c5ccccc45)cc3CC(=O)N([C@H](C)CO)C[C@@H]2C)cc1	none (no result: FN deposition inh)
C[C@H](CO)N1C[C@H](C)[C@H](CN(C)S(=O)(=O)c2ccccc2)Oc2ccc(NC(=O)Cc3cn(C)c4ccccc34)cc2CC1=O	Env fusion inh 94[16.7 µM] (no result: FN deposition inh)
C[C@H](CO)N1C[C@H](C)[C@H](CN(C)S(=O)(=O)c2cccs2)Oc2ccc(NC(=O)Cc3cn(C)c4ccccc34)cc2CC1=O	Env fusion inh 96[16.7 µM]
COc1ccc(S(=O)(=O)N(C)C[C@@H]2Oc3ccc(NC(=O)Cc4cn(C)c5ccccc45)cc3CC(=O)N([C@H](C)CO)C[C@@H]2C)cc1	Env fusion inh 76[16.7 µM] (no result: FN deposition inh)
COc1ccc(CC(=O)Nc2ccc(S(=O)(=O)Nc3nc(C)cc(C)n3)cc2)cc1	none
CNC[C@@H]1Oc2ncc(-c3cc4ccccc4o3)cc2C(=O)N([C@H](C)CO)C[C@@H]1C	none (no result: FN deposition inh)
CCOC(=O)Cn1c(S(=O)(=O)Cc2ccc(Cl)cc2)nc(-c2ccccc2)c1-c1ccccc1	Env fusion inh 114
C#CCn1c(S(=O)(=O)Cc2ccc(OC)cc2)nc(-c2ccccc2)c1-c1ccccc1	Env fusion inh 82
COc1ccc(-c2nc3ccccc3nc2-c2ccccc2)cc1	none (no result: FN deposition inh)
CCOC(=O)Cn1c(S(=O)(=O)Cc2ccccc2)nc2ccccc21	Env fusion inh inconclusive (no result: PGC1a acetyl inh, miR-122 sensor)
C[C@H]1CN([C@@H](C)CO)C(=O)c2cc(-c3ccc(F)cc3)cnc2O[C@@H]1CN(C)C(=O)c1ccccc1F	none
CC(C)(C)C(=O)NC(=S)Nc1ccccn1	none
Cc1cccn2c(=O)nc(SCC(=O)Nc3cccc4ccccc34)nc12	Env fusion inh 88 (no result: Cneo AK release, PGC1a acetyl inh, miR-122 sensor, UUG fidelity)
CCOCCCNc1ncnc2c1[nH]c1ccccc12	none (no result: Env fusion inh, FN deposition inh)
CCCCOCCCNc1ncnc2c1[nH]c1ccccc12	Env fusion inh 88 (no result: PGC1a acetyl inh)
O=c1cc(-c2ccccc2)oc2ccc3ccccc3c12	none
